Source: US5994629A, “Positive selection” (priority 1991, dated 1999)
Only a part of the results on these compounds is given; other tests are left out.

Test system: tobacco leaf discs
Assay: Effect of opines on shoot formation in substrates without nitrogen
Type: cell-based
Conditions: substrate without nitrogen, 1 mg/l BA

Measured: number of shoots per 9 leaf discs

Ammonium nitrate
> 50: 10 mM | 20 mM | 40 mM | 80 mM
